Legend:
[1] = target: T1, αIIbβ3 (Homo sapiens, UniProt P05106+P08514); assay: Displacement of labeled fibrinogen from preactivated αIIbβ3-K562 cells (flow cytometry); settings: increasing concentrations; FIGS. 2 and 6B
[2] = target: T1, αIIbβ3; assay: Displacement of Alexa488-labeled Hr10 binding to inactive and PT-25-activated αIIbβ3-K562 cells; settings: comparison of inactive and PT-25-activated αIIbβ3-K562
[3] = test system: human platelets; assay: Platelet aggregation in whole human blood by impedance (Chrono-Log 700); assay type: cell-based; settings: for Inhibition of ADP-induced platelet aggregation in whole blood: ADP 20 μM
[4] = target: T1, αIIbβ3; assay: Binding of conformation-sensitive mAbs AP5 / LIBS-1 to human platelets; assay type: cell-based
[5] = test system: human platelets; assay: Thrombin-induced clot retraction in human platelet-rich plasma; assay type: cell-based; settings: tirofiban 1.5 μM, m-tirofiban 15 μM; α-thrombin 0.5 unit/mL; FIG. 5

Protein sequences, listed by entry. Tags and fused reporters are not part of them. Residues count along the entry.
UniProt P05106, 27-788 limits assumed: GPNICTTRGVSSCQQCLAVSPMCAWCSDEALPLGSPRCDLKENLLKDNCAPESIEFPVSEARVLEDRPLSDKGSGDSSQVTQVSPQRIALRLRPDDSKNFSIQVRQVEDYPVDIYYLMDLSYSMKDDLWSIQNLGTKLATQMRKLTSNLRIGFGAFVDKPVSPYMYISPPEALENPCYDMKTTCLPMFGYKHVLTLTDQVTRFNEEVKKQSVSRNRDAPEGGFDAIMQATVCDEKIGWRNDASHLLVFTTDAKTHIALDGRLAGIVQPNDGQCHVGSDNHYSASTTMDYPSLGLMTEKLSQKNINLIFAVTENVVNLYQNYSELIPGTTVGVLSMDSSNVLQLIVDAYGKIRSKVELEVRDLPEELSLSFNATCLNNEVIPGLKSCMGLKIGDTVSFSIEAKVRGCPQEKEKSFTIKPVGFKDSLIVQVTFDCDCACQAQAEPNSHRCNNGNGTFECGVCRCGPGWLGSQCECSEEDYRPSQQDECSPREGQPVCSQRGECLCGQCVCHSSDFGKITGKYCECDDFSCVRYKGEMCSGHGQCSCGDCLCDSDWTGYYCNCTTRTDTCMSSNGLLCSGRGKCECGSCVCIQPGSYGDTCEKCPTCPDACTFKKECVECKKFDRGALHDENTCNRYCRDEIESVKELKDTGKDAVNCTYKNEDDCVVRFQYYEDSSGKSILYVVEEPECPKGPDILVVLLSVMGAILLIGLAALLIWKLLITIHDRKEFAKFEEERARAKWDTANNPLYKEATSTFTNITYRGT
UniProt P08514, 32-887 limits assumed: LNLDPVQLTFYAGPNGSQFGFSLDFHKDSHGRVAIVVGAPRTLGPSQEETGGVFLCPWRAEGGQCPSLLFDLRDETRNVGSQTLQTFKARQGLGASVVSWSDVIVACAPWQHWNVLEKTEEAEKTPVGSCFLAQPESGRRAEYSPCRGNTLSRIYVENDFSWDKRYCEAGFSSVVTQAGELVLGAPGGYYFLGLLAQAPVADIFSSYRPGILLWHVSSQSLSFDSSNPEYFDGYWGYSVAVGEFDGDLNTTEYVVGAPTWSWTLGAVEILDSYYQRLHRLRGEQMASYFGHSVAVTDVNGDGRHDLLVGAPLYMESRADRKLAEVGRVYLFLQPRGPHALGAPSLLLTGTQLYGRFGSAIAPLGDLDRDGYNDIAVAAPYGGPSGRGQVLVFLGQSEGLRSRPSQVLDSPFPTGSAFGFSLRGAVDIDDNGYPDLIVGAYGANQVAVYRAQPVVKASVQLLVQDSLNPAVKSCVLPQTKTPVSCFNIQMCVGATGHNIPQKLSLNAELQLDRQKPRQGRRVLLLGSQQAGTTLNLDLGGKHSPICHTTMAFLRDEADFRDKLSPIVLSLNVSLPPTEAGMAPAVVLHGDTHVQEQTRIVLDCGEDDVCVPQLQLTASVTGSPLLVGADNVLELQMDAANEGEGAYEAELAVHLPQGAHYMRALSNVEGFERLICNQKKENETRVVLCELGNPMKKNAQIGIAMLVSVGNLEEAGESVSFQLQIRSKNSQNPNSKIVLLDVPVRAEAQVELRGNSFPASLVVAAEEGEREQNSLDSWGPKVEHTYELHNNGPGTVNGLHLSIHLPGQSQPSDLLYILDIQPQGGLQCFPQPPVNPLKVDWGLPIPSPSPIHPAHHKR
UniProt P08514, 891-1039 partner limits assumed: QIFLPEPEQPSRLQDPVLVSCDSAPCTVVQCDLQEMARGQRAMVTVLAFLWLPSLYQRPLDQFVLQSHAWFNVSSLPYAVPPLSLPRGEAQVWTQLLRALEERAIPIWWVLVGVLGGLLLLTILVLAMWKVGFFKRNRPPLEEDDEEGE

O=C(N[C@@H](Cc1ccc(OCCCCC2CCNCC2)cc1)C(=O)O)c1nc2ccccc2o1 was tested, and the “Inhibition of APC-fibrinogen binding to K562-αIIbβ3” value [1] was “inhibited binding of APC-fibrinogen to K562-αIIbβ3 in a dose dependent manner”, the “Binding affinity to inactive versus active αIIbβ3” value [2] was “showed equivalent binding affinities to inactive and active αIIbβ3” and the “Inhibition of ADP-induced platelet aggregation in whole blood” value [3] was “inhibited platelet aggregation in a dose-dependent manner but with lower affinity compared to tirofiban”. The “Inhibition of ADP-induced platelet aggregation in whole blood” value ([3]; listed as M-tirofiban) was “equivalent to that of the drug eptifibatide”, the “Inhibition of human platelet aggregation, pilot study” value ([3]; pilot study comparing Compounds 1-3) was “more effective than Compounds 1-2” and the “Effect on ADP-induced AP5 expression” value ([4]; M-tirofiban 1.5 μM added before or after ADP 5 μM, FIG. 6D) was “suppressed ADP-induced AP5 expression”. For the same compound, the “Activating conformational changes in αIIbβ3 reported by AP5 binding” value ([4]; human platelets in PRP, saturating concentrations, absence or presence of 20 μM ADP, FIG. 4) was “did not induce the activating conformational changes in αIIbβ3” and the “Clot retraction induced by α-thrombin (photographs)” value [5] was “reduced clot retraction minimally”.

Source: patent US11685717B2, “Polypeptide integrin antagonists” (The General Hospital Corporation, priority 2018, dated 2023)
